Data on one compound can be found in ChEMBL document CHEMBL1147685, “Synthesis and SAR of 1,9-dihydro-9-hydroxypyrazolo[3,4-b]quinolin-4-ones as novel, selective c-Jun N-terminal kinase inhibitors” (Bioorg Med Chem Lett, 2006).

Amino acid sequences for entries named in this document (tags omitted). A change or cut given only in a name is not applied to a line headed by its entry.
UniProt P45983: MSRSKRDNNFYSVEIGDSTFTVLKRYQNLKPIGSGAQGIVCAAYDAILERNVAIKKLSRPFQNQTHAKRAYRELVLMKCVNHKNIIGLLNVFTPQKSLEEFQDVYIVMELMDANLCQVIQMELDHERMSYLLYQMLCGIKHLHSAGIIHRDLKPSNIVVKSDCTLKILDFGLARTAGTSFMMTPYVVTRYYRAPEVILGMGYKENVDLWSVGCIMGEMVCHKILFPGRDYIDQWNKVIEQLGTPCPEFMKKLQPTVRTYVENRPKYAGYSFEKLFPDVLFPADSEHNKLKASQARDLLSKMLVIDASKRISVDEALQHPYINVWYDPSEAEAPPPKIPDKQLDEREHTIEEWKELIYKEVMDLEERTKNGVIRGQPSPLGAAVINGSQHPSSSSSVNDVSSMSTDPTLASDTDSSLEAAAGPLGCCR

In this assay the target is Mitogen-activated protein kinase 8 (Homo sapiens, UniProt P45983). In words: Inhibition of JNK1.

Consider `Cc1nn(C)c2c1c(=O)c1cc(Cl)ccc1n2O`, for which the half-maximal inhibitory concentration (IC50) is 1220 nM.

One may read the IC50 as the concentration that inhibits the measured activity by half. Low values mean greater potency in that assay, high ones weaker potency in that assay.
